According to patent US20190216956A1, “COMPOSITIONS FOR RADIOTHERAPY AND USES THEREOF” (priority 2016, published 2019):

Test system: NCI-28H cells
Assay: Cytotoxicity assay (MTS) of NCI-28H cells: carboplatin, mitomycin, gemcitabine, talc, talc bound to drugs (Example 22)
Details: 72 hrs

## CO[C@@]12[C@H](COC(N)=O)C3=C(C(=O)C(C)=C(N)C3=O)N1C[C@@H]1N[C@@H]12 [mitomycin]
  cytotoxic effect on NCI-28H cells (comparison): clear cytotoxic effect
